Where two headings read alike, the source gives them in different places.
Columns and labels:
CD56 bright NK cells = conditions: cited from earlier work
[1] = test system: relapsed leukemia or lymphoma; conditions: cited from earlier work
[2] = test system: refractory or relapsed HD and NHL; conditions: five year follow-up, cited from earlier work
[3] = test system: tumor targets K562 and Daudi; conditions: cited from earlier work
high grade NHL = conditions: cited from earlier work
[4] = test system: mononuclear cells from CLL patients; assay: In vitro cytokine up-regulation of CD20, flow cytometry; format: cell-based, human; conditions: after only 24 hours, 500 to 1000 U/ml, preliminary data
Procedure: Another approach to improving response in CLL patients is to upregulate the CD20 antigen using cytokines. In an in vitro study, mononuclear cells from CLL patients were incubated for 24 hours with various cytokines.

[5] = test system: relapsed or refractory NHL; assay: Phase I/II study of IDEC-Y2B8; format: in vivo, human
Procedure: IDEC-Y2B8 (^90Y-ibritumomab tiuxetan) is a murine IgG1 kappa anti-CD20 antibody conjugated to ^90Y via a chelator, MX-DTPA, which is covalently bound to the antibody.
In a recently reported Phase I/II study (40-42), patients with low-grade NHL (N=34), intermediate-grade NHL (N=14), or mantle-cell lymphoma (N=3) were treated with IDEC-Y2B8. The median age was 60, 71% were male, and 96% were Caucasian. Of 51 patients with relapsed or refractory NHL, 34 (67%) responded to single doses of 0.2, 0.3, or 0.4 mCi/kg of IDEC-Y2B8. The ORR was 82% (28/34) for patients with low-grade or follicular NHL and was 43% (6/14) for patients with intermediate-grade lymphoma.

[6] = test system: B-cell lymphoblastic tumor; conditions: mice harboring a B-cell lymphoblastic tumor; cited from earlier work

For IL-2: cytokine, IL-2 (Hoffman-LaRoche), the “absolute number of CD56 bright NK cells” value (CD56 bright NK cells; 0.45×10^6 U/M^2/day by 24 hour CIV for 12 weeks) is given as “able to expand”, the toxicity (CD56 bright NK cells; human, in vivo) is given as “little toxicity” and the survival ([1]; 29 allogeneic BMT patients, low dose IL-2, histological controls 30%) is given as 70%. For the same molecule, the “in vitro killing of the NK targets K562” value ([1]; low dose regimen) was “augmented”, the “probability of DFS” value ([2]; HD) was 36% and the probability of survival ([2]; HD) was 73%. For the same molecule, the “probability of DFS” value ([2]; NHL) was 48%, the probability of survival ([2]; NHL) was 70% and the “probability of DFS” value ([2]; all 25 patients) was 45%. For the same molecule, the probability of survival ([2]; all 25 patients) was 72%, the “median time of relapse after transplant” value ([3]; in vivo) was 17.8 months and the tolerability ([3]; in vivo) was “well-tolerated”. The “median increase in lytic activity” value ([3]; tumor target Daudi) was 6.5 fold, the “median increase in lytic activity” value ([3]; tumor target K562) was 5.9 fold and the disease progression (high grade NHL; 11 patients, median follow-up twenty-two months) was “None of the patients progressed”. The “total lymphocytes and CD16 and CD56 NK cells” value (high grade NHL; after 6 months of therapy) was “persistent and significant (p=0.001) increase” and the “patients with residual disease after ABMT who obtained a complete response” value (high grade NHL; after 7 and 10 months of IL-2 therapy) was “two”.

In the case of “interferon alpha: cytokine with single-agent clinical activity in NHL”, the “CD20 on CLL cells” value [4] is reported as “upregulates CD20”.

B1: IDEC-Y2B8: murine IgG1 kappa anti-CD20 antibody conjugated to ^90Y via a chelator, MX-DTPA (conjugate, chains of the INN, looked up)
heavy: QAYLQQSGAELVRPGASVKMSCKASGYTFTSYNMHWVKQTPRQGLEWIGAIYPGNGDTSYNQKFKGKATLTVDKSSSTAYMQLSSLTSEDSAVYFCARVVYYSNSYWYFDVWGTGTTVTVSAPSVYPLAPVCGDTTGSSVTLGCLVKGYFPEPVTLTWNSGSLSSGVHTFPAVLQSDLYTLSSSVTVTSSTWPSQSITCNVAHPASSTKVDKKIEPRGPTIKPCPPCKCPAPNLLGGPSVFIFPPKIKDVLMISLSPIVTCVVVDVSEDDPDVQISWFVNNVEVHTAQTQTHREDYNSTLRVVSALPIQHQDWMSGKEFKCKVNNKDLPAPIERTISKPKGSVRAPQVYVLPPPEEEMTKKQVTLTCMVTDFMPEDIYVEWTNNGKTELNYKNTEPVLDSDGSYFMYSKLRVEKKNWVERNSYSCSVVHEGLHNHHTTKSFSR
light: QIVLSQSPAILSASPGEKVTMTCRASSSVSYMHWYQQKPGSSPKPWIYAPSNLASGVPARFSGSGSGTSYSLTISRVEAEDAATYYCQQWSFNPPTFGAGTKLELKRADAAPTVFIFPPSDEQLKSGTASVVCLLNNFYPREAKVQWKVDNALQSGNSQESVTEQDSKDSTYSLSSTLTLSKADYEKHKVYACEVTHQGLSSPVTKSFN
modifications: 90Y via MX-DTPA chelator
notes: murine IgG1 kappa anti-CD20 antibody conjugated to ^90Y via a chelator, MX-DTPA
With B1 the ORR ([5]; intermediate-grade lymphoma (6/14)) was 43%, the ORR ([5]; low-grade or follicular NHL (28/34)) was 82% and the response ([5]; mantle-cell disease (N=3)) was “No patients with mantle-cell disease responded”. For the same molecule, the patients who responded ([5]; single doses of 0.2, 0.3, or 0.4 mCi/kg, 51 patients, Rituximab 250 mg/m^2 prior) was 67% and the tumor reduction [6] was “significant tumor reduction”.

Source: US10113000B2, “Combination therapies for B-cell lymphomas comprising administration of anti-CD20 antibody” (BIOGEN INC., priority 1998, dated 2018)
